## Apparent affinities of Ab-14 variants for a coronavirus HR2 peptide

The target is the same throughout: PDVDLGDISGINAS, from the HR2 region of SARS-CoV-2 spike.

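Phage display of a naive human antibody library on the peptide gave the parent. This is the validation round: designs drawn from the data on random variants, tested in the same kind of assay. Several design methods are mixed in this list. Affinity was read by AlphaSeq, a pooled yeast mating assay with surface-displayed partners. The frequency of each diploid, read from paired DNA barcodes, reflects how well the two displayed proteins bind. The ratio of observed to expected reads was calibrated, replicate by replicate, on BCL2-family standards whose Kd was known from biolayer interferometry. The assay was run in six technical replicates.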

The variants keep the heavy chain, the linker and the frameworks of Ab-14 (scFv order VH, a (GGGGS)3 linker, VL).
VH: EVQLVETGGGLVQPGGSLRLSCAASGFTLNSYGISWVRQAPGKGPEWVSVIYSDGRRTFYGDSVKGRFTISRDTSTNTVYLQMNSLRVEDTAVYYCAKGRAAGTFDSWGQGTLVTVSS
VL: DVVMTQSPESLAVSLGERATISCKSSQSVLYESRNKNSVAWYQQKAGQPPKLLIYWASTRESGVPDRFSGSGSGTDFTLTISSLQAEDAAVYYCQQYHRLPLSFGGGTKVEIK

The parent's light chain CDRs are KSSQSVLYESRNKNSVA, WASTRES, QQYHRLPLS; each variant's own CDRs replace them letter for letter. Kd is apparent (estimated from mating counts) and averaged on the log scale over replicates with a signal. Smaller is tighter. Where no diploid with the target was found in any replicate, the entry reads "not detected": below detection, most likely a poor binder, though not proof of it. Background: pairings of all light chain designs with three empty control strains gave a value in 4% of cases (median 430 nM, 5th percentile 38 nM). Values in that range, when seen in few replicates, are hard to tell from nonspecific mating. Also given: how often the same scFv was detected with the empty control strains. In the paper, a design with two or fewer of six values counts as a poor binder. A sequence measured in both rounds can read differently, since the two assays cover different ranges. The parent sequence was in this pool as ten entries: three were never detected, three once, and four in most replicates, with averages from 2.2 nM to 240 nM.

| CDR-L1 | CDR-L2 | CDR-L3 | Kd (apparent) | replicates with signal | signal with controls |
|---|---|---|---|---|---|
| KSSISVLYEENNHNSVA | AAQTRES | QQYHRLPLS | 2.4 nM | 6 of 6 | 0 of 18 |
| KINGVLINFGEDMNAIA | QENLSNL | QQYFHLPLS | not detected | 0 of 6 | 0 of 18 |
| QFDLRMNEQGMQNAAIA | GATNRHT | QQYQKLPLS | 4.8 nM | 6 of 6 | 0 of 18 |
| KLRQSTLYESRNPNSVA | YASTRES | QQYHRLPLS | 2.2 nM | 6 of 6 | 1 of 18 |
| TMAYQPETINGRVNNVA | NGSEAVE | QQYDRLPFV | 5.9 nM | 6 of 6 | 0 of 18 |
| KFSQSVLYESTTVNSVA | NASTRES | QQYHRLPLS | 14 nM | 6 of 6 | 0 of 18 |
| KLYQSQLYESRNKNSVA | NASQRES | QQYHRLPLS | 880 pM | 6 of 6 | 2 of 18 |
| KLRQMTATEGYFKNSVA | QASTREN | QSYHRLPLS | 14 nM | 6 of 6 | 0 of 18 |
| KISYLQNQTFEQSNNVA | EMATREN | QQYDRLPLS | 62 nM | 4 of 6 | 2 of 18 |
| KLQQSVEYQARNQNSVA | SASTRLD | QQYHRLPLS | 730 pM | 6 of 6 | 2 of 18 |
| KSSQSVPYESRNKNSVA | YASQRES | QQYHRLPLS | 27 nM | 6 of 6 | 1 of 18 |
| KLSQSVPYESRNKNSVA | NASTREW | QQYHRLPLS | 910 pM | 6 of 6 | 2 of 18 |
| KMPQSVLYEQRNSNSVA | NGSTRFS | QQYHRLPLS | 590 pM | 6 of 6 | 0 of 18 |
| KLPQSWGYESRNKNSVA | NASQRES | QQYHRLPLS | 420 pM | 6 of 6 | 1 of 18 |
| KIQQSELYESRNKNSVA | NASTRMS | QQYHRLPLS | 500 pM | 6 of 6 | 1 of 18 |
| KVQQSMLYESRNKNSVA | NASQRES | QQYHRLPLS | 540 pM | 6 of 6 | 0 of 18 |
| KVSQSVLYESGTKNSVA | NASWRES | QQYHRLPLS | 1.4 nM | 6 of 6 | 0 of 18 |
| KLSQSVLYESRNKNSVA | EASTREY | QQYHRLPLS | 810 pM | 6 of 6 | 0 of 18 |
| KSSQSVLYESRGKNSVA | WASTRED | QQYHRLPLS | 31 nM | 6 of 6 | 0 of 18 |
| KLRQVTGYESYMRNSVA | QMSTRAE | QDYHRLPLS | 7.0 nM | 6 of 6 | 1 of 18 |
| MLSQMWAIGQKVSNSVA | QASMRFN | QQYDRLPLI | 31 nM | 6 of 6 | 0 of 18 |
| KFSISYLEESRNKNSVA | EASTRES | QQYHRLPLS | 1.2 nM | 6 of 6 | 2 of 18 |
| KSSQSVLYEDKNVNSVA | DASQRCS | QQYHRLPLS | 4.5 nM | 6 of 6 | 0 of 18 |
| DVTVVDNGDSKIQNSIA | SGVEKCD | QQYSRLPLA | 20 nM | 6 of 6 | 1 of 18 |
| KSSQVDLYESRNKNSVA | GASTRES | QQYHRLPLS | 940 pM | 6 of 6 | 0 of 18 |
| KLTMITGLEKVSGNNVA | EMETREK | QQYNRLPLA | 1.2 nM | 6 of 6 | 4 of 18 |
| MISQLMNYGQFAINSVA | QATIRNS | QQYDRLPLV | 44 nM | 3 of 6 | 0 of 18 |
| KLRQSTLYESRNKNSVA | QASTRES | QQYHRLPLH | 3.4 nM | 6 of 6 | 4 of 18 |
| KLSQSTLYESRNKNSVA | NASQRES | QQYHRLPLS | 560 pM | 6 of 6 | 2 of 18 |
| KVSQSHDYESRNKNSVA | NASTRES | QQYHRLPLS | 860 pM | 6 of 6 | 0 of 18 |
| SIETLSQGMRLNWSAVA | EAHTLYQ | QYYARLPLS | 1.9 µM | 2 of 6 | 0 of 18 |
| KFSQSVDYEDRQKNSVA | NASTRES | QQYHRLPLS | 780 pM | 6 of 6 | 0 of 18 |
| KSSQSWLYESRNKNSVA | EASQRES | QQYHRLPLS | 420 pM | 6 of 6 | 2 of 18 |
| KLSQSELYESRNKNSVA | EASTRES | QSYHRLPLS | 1.9 nM | 6 of 6 | 0 of 18 |
| TLGATVGGESRNRNSVA | HNSMREN | QQYDRLPLS | 7.3 nM | 6 of 6 | 1 of 18 |
| KSSWGVDDESRNDNSVA | KASTRCS | QQYHRLPLS | 2.0 nM | 6 of 6 | 1 of 18 |
| TISGIMDQMSHSKNNVA | EVSMRFD | QQYVRLPLE | 8.0 nM | 6 of 6 | 2 of 18 |
| KMLQSNLYESRNKNSVA | NASTREW | QQYHRLPLS | 1.0 nM | 6 of 6 | 0 of 18 |
| SISGFMKSLSAHLNNVA | DMTNRED | QQYDRLPLS | 2.9 nM | 6 of 6 | 0 of 18 |
| KLSMITGHMQQSKNNVA | EMVTREN | QQYERLPLS | 4.2 nM | 6 of 6 | 1 of 18 |
| SVRHYFQGENGMRGSVA | NATIRDQ | QQYFRLPLF | 1.0 nM | 6 of 6 | 0 of 18 |
| KSSISNLYESRNKNSVA | EASTRES | QQYHRLPLS | 370 pM | 6 of 6 | 0 of 18 |
| KIGMTLNTLMHQKNNVA | DLVMREM | QQYHRLPLS | 5.3 nM | 6 of 6 | 2 of 18 |
| MLGDVAFGLSRKHNSVA | DNSTREA | QQYDRLPLS | 58 nM | 6 of 6 | 0 of 18 |
| KVDISPHVQGMHKHGVA | DHDMRVS | QQYDRLPLA | 4.3 nM | 6 of 6 | 0 of 18 |
| MVSQLMLWGLHATNSIA | EAETRGN | QQYDRLPLF | 39 nM | 4 of 6 | 0 of 18 |
| KLQQSMLYESRNKNSVA | DASTRES | QQYHRLPLS | 620 pM | 6 of 6 | 1 of 18 |
| KLPQSTLYESRNKNSVA | WASTRLS | QQYHRLPLS | 1.5 nM | 6 of 6 | 1 of 18 |
| KLEQSMDYESRNDNSVA | HASMRES | QQYHRLPLF | 1.9 nM | 6 of 6 | 1 of 18 |
| KLLQSVLYESRNKNSVA | GASTRED | QQYHRLPLS | 2.1 nM | 6 of 6 | 0 of 18 |
| KISMTVENQLKNRNSVA | ELVTRMA | QQYNRLPLS | 13 nM | 6 of 6 | 0 of 18 |
| KLSGLMQSSKFAKDNVA | ENNTREQ | QQYDRLPLS | 110 nM | 6 of 6 | 2 of 18 |
| KLGGVTEYEMRNINSVA | QMTTRES | QQYHRLPLS | 2.2 nM | 6 of 6 | 1 of 18 |
| KMSQSVLYESRNKNSVA | KASTRES | QQYHRLPLS | 930 pM | 6 of 6 | 0 of 18 |
| KLEQSVLYESRNKNAVA | NASTRES | QQYHRLPLS | 740 pM | 6 of 6 | 0 of 18 |
| KVSQSVLYESRNKNSVA | NASTRCS | QQYHRLPLS | 1.7 nM | 6 of 6 | 1 of 18 |
| NLVGRVEDNYTERNAIA | DMHCRAG | QQYSRLPLS | 14 nM | 6 of 6 | 2 of 18 |
| MISQLMNMGQFAINSVA | QAETRCN | QQYDRLPLE | 750 nM | 4 of 6 | 2 of 18 |
| HIGLVTELEAKVSNSVA | NNSTREE | QQYDRLPLS | 120 nM | 5 of 6 | 0 of 18 |
| KRSQSMLYESRNKNSCA | KASTRES | QQYLRLPLA | 29 nM | 5 of 6 | 0 of 18 |
| KVEQGVLYESRNKGSVA | GASVRES | QQYHRLPLS | 440 pM | 6 of 6 | 0 of 18 |
| KVSQSVLYEQRNKNSVA | NASTRES | QQYHRLPLS | 4.6 nM | 6 of 6 | 0 of 18 |
| TLKMTKLPGQVNAYNIA | NAELVEN | QQYFHLPLY | 41 nM | 6 of 6 | 1 of 18 |
| KSSQSWLYESRNKNSVA | DASQRES | QQYHRLPLS | 560 pM | 6 of 6 | 2 of 18 |
| KSSQSVLFESSNKNSVA | ESSTRAS | QQYHRLPLS | 650 pM | 6 of 6 | 2 of 18 |
| KLSQSDLYESRNKNSVA | NASTRES | QQYHRLPLS | 350 pM | 6 of 6 | 0 of 18 |
| KLSQSFLYESRNKNSVA | NASQRLS | QQYHRLPLS | 1.5 nM | 6 of 6 | 2 of 18 |
| KFSQSVDYEDRQKNSVA | NASTRMS | QQYHRLPLS | 550 pM | 6 of 6 | 3 of 18 |
| KLSQSQLYEWRNMNSVA | NASTREM | QQYHRLPLI | 3.4 nM | 6 of 6 | 1 of 18 |
| KLSQSQEYESRNSKSVA | NASTRVS | QQYHRLPLS | 1.0 nM | 6 of 6 | 3 of 18 |
| KLSQSWLYESRNKNSVA | HASTRES | QQYHRLPLS | 830 pM | 6 of 6 | 0 of 18 |
| ILAENSDDITEKQNSIA | ETQQVYS | QQYHRLPLA | 140 nM | 6 of 6 | 1 of 18 |
| KSSQSVCYESCNKNSVA | SASTRES | QQYHRLPLS | 2.1 nM | 6 of 6 | 0 of 18 |
| KFSQGYPYEQRNKNSVA | NASQRES | QQYHRLPLS | 690 pM | 6 of 6 | 1 of 18 |
| KSSQSFLYESRWKNSVA | GASQRES | QQYHRLPLS | 5.4 nM | 6 of 6 | 2 of 18 |
| KLSQSQLYESRNKNSVA | QAHHREH | QQYHRLPLS | 130 nM | 6 of 6 | 0 of 18 |
| KISMTTEMELKNRNSVA | ELVTRMS | QQYNRLPLS | 2.3 nM | 6 of 6 | 0 of 18 |
| KLSQSWLYESRNKNNVA | GASQRES | QQYHRLPLS | 690 pM | 6 of 6 | 2 of 18 |

For reference, 11 entries of the list once more:

CDR-L1	CDR-L2	CDR-L3	Kd (apparent)	replicates with signal	signal with controls
KVQQSMLYESRNKNSVA	NASQRES	QQYHRLPLS	540 pM	6 of 6	0 of 18
KFSQSVDYEDRQKNSVA	NASTRMS	QQYHRLPLS	550 pM	6 of 6	3 of 18
KVDISPHVQGMHKHGVA	DHDMRVS	QQYDRLPLA	4.3 nM	6 of 6	0 of 18
KVSQSVLYESRNKNSVA	NASTRCS	QQYHRLPLS	1.7 nM	6 of 6	1 of 18
QFDLRMNEQGMQNAAIA	GATNRHT	QQYQKLPLS	4.8 nM	6 of 6	0 of 18
MISQLMNMGQFAINSVA	QAETRCN	QQYDRLPLE	750 nM	4 of 6	2 of 18
KMPQSVLYEQRNSNSVA	NGSTRFS	QQYHRLPLS	590 pM	6 of 6	0 of 18
KLSQSELYESRNKNSVA	EASTRES	QSYHRLPLS	1.9 nM	6 of 6	0 of 18
KLQQSVEYQARNQNSVA	SASTRLD	QQYHRLPLS	730 pM	6 of 6	2 of 18
KLRQSTLYESRNPNSVA	YASTRES	QQYHRLPLS	2.2 nM	6 of 6	1 of 18
KLSQSQEYESRNSKSVA	NASTRVS	QQYHRLPLS	1.0 nM	6 of 6	3 of 18

Source: Li et al. 2023 (doi:10.1038/s41467-023-39022-2), MIT Lincoln Laboratory and A-Alpha Bio; data file from the FLAb repository.